Laboratory results published in BindingDB's records for doi:10.1016/j.bmc.2012.01.022 (Florida A&M University, 2012).

By UniProt entry, the sequences of proteins in these tests, tags left out.
UniProt P08908, whole entry: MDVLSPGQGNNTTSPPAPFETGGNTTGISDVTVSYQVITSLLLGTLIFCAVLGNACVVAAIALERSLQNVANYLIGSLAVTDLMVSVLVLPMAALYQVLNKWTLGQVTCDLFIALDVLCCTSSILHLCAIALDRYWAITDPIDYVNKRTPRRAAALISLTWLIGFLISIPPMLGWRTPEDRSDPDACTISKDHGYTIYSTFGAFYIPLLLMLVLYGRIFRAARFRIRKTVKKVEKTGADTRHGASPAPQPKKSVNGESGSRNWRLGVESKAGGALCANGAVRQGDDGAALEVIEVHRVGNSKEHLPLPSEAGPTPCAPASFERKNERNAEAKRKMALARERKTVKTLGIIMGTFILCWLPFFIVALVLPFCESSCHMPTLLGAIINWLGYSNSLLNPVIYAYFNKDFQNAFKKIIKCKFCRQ
UniProt P35367, whole entry: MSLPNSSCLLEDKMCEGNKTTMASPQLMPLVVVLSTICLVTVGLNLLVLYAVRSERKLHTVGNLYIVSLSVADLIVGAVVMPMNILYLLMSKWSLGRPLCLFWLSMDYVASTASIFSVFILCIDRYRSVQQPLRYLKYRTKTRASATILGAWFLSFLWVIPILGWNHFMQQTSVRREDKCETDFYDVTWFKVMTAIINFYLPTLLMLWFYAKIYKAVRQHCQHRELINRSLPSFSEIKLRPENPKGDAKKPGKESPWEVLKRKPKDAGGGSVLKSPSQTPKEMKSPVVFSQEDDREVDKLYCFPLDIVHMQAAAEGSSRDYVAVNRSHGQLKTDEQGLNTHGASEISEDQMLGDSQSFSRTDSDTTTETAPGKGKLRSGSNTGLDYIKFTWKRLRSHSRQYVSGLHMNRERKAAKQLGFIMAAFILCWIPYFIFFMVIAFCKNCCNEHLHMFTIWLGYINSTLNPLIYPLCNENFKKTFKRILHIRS
UniProt P28223, whole entry: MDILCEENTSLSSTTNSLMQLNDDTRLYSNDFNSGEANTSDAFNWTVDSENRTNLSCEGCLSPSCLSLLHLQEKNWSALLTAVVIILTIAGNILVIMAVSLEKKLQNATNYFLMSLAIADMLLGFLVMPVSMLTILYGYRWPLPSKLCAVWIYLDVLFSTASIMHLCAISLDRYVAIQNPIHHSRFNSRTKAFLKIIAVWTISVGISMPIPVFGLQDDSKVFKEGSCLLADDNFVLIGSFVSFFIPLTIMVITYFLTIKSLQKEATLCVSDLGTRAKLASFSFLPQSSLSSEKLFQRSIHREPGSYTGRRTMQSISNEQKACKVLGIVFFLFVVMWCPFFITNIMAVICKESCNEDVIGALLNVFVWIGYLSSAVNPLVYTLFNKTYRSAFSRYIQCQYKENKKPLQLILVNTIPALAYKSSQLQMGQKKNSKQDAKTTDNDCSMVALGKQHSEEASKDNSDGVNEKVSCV

Columns and labels:
[1] = molecular target: 5-hydroxytryptamine receptor 1A (Homo sapiens, UniProt P08908); assay: Displacement of [3H]8-OH-DPAT from 5-HT1A receptor expressed in CHO cells after 20 mins by liquid scintillation counting
[2] = molecular target: Histamine H1 receptor (Homo sapiens, UniProt P35367); assay: Displacement of [3H]-Pyrilamine from human histamine H1 receptor by liquid scintillation counter
Method in brief: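 Radioligand binding run by the NIMH Psychoactive Drug Screening Program. […] Standard errors were within 20% of the mean.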

[3] = molecular target: 5-hydroxytryptamine receptor 2A (Homo sapiens, UniProt P28223); assay: Binding affinity at 5-HT2A receptor by radioligand displacement assay

| SMILES | Ki [1] [nM] | Ki [2] [nM] | Ki [3] [nM] |
| --- | --- | --- | --- |
| OC1(c2ccc(Cl)cc2)C[C@H]2CC[C@@H](C1)N2CCCCc1ccc(F)cc1 (some centres undefined) | 102 |  |  |
| OC1(c2ccc(Cl)cc2)C[C@H]2CC[C@@H](C1)N2CCCOc1ccc(F)cc1 (some centres undefined) | 123 | 4150 | 236 |
